From patent US7985594B2, “Biradical polarizing agents for dynamic nuclear polarization” (Massachusetts Institute of Technology, priority 2006, dated 2011)

Test: Solubility in aqueous media
Format: physicochemical
Source text: In contrast, BT2E is insoluble in all of these media.

bis-TEMPO-2-ethyleneglycol [BT2E]
insoluble: solubility in 200 mM salt (200 mM salt, solvent conditions common for protein samples) | solubility in glycerol/water (glycerol/water (6:4 w/w)) | solubility in water (water)
